One substance from US6566088B1, “Prolyl-4-hydroxylases” (Board of Regents, The University of Texas System, priority 2001, dated 2003) can be followed below.

Chains of the proteins cited; added tags and fusions are not shown. Lines headed by an entry give the natural chain unless they say otherwise; changes in a name come on top.
UniProt Q9GZT9: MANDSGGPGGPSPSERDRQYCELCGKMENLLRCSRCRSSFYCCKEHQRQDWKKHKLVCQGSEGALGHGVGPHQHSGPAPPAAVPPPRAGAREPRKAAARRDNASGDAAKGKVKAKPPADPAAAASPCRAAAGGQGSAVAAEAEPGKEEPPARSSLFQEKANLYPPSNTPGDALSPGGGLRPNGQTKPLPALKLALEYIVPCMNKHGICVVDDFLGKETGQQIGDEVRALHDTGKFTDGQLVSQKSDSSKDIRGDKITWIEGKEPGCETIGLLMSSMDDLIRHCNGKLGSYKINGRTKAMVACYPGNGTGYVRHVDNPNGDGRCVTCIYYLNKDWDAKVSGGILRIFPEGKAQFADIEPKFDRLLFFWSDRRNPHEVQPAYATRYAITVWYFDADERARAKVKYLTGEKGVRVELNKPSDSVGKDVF

In the assay the target is HPH 2 (Homo sapiens, UniProt Q9GZT9, DEL76-177). Kind of assay: Activity of purified recombinant HPH 2 on HIF-1a peptide substrate. It counts as biochemical. Particulars: additive added (CoCl2 in excess).

For CoCl2, the “effect on activity of the HPH 2 enzyme” value is listed as “inhibited”.
